## Cyclic peptide permeability, from CycPeptMPDB

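Conditions beyond the assay type are not listed; see the original paper. The list need not hold all peptides of the study. Entries at the database's floor value (log10 P of -10) are not listed.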

PAMPA is the parallel artificial membrane permeability assay, which has no cells and reads passive diffusion.
P is given in units of 10^-6 cm/s (from log10 values with two decimals); larger means faster passage.

The entry for CC(=O)N1CCC[C@@H]1C(=O)N(C)[C@H](CC(C)C)C(=O)N[C@@H]1C(=O)N[C@@H](CC(C)C)C(=O)N(C)[C@H](CC(C)C)C(=O)N[C@H](CC(C)C)C(=O)N[C@H](C)C(=O)N[C@H](CC(C)C)C(=O)N2CCC[C@@H]2C(=O)O[C@@H]1C lists PAMPA 0.11 × 10^-6 cm/s. For CC(=O)N1CCC[C@@H]1C(=O)N(C)[C@H](CC(C)C)C(=O)N[C@@H]1C(=O)N[C@H](CC(C)C)C(=O)N[C@@H](CC(C)C)C(=O)N[C@@H](CC(C)C)C(=O)N[C@@H](C)C(=O)N[C@H](CC(C)C)C(=O)N2CCC[C@@H]2C(=O)O[C@@H]1C the data give PAMPA 0.0079 × 10^-6 cm/s. For CC(=O)N1CCC[C@@H]1C(=O)N(C)[C@@H](CC(C)C)C(=O)N[C@@H]1C(=O)N[C@H](CC(C)C)C(=O)N[C@H](CC(C)C)C(=O)N(C)[C@H](CC(C)C)C(=O)N[C@H](C)C(=O)N[C@@H](CC(C)C)C(=O)N2CCC[C@@H]2C(=O)O[C@@H]1C the data give PAMPA 3.3 × 10^-6 cm/s. CC(=O)N1CCC[C@H]1C(=O)N(C)[C@@H](CC(C)C)C(=O)N[C@@H]1C(=O)N[C@@H](CC(C)C)C(=O)N[C@@H](CC(C)C)C(=O)N(C)[C@@H](CC(C)C)C(=O)N[C@@H](C)C(=O)N[C@@H](CC(C)C)C(=O)N2CCC[C@@H]2C(=O)O[C@@H]1C has PAMPA 5.9 × 10^-6 cm/s. The entry for CC(=O)N1CCC[C@@H]1C(=O)N(C)[C@H](CC(C)C)C(=O)N[C@@H]1C(=O)N[C@@H](CC(C)C)C(=O)N(C)[C@H](CC(C)C)C(=O)N(C)[C@H](CC(C)C)C(=O)N(C)[C@H](C)C(=O)N[C@H](CC(C)C)C(=O)N2CCC[C@@H]2C(=O)O[C@@H]1C lists PAMPA 1.1 × 10^-6 cm/s. CC(=O)N1CCC[C@H]1C(=O)N[C@@H]1C(=O)N[C@H](CC(C)C)C(=O)N[C@@H](CC(C)C)C(=O)N(C)[C@H](CC(C)C)C(=O)N[C@H](CC(C)C)C(=O)N(C)[C@@H](C)C(=O)N[C@@H](CC(C)C)C(=O)N2CCC[C@@H]2C(=O)O[C@@H]1C is reported with PAMPA 11 × 10^-6 cm/s. The entry for CC(=O)N1CCC[C@@H]1C(=O)N(C)[C@@H](CC(C)C)C(=O)N[C@@H]1C(=O)N(C)[C@@H](CC(C)C)C(=O)N(C)[C@@H](CC(C)C)C(=O)N(C)[C@@H](CC(C)C)C(=O)N[C@@H](C)C(=O)N[C@@H](CC(C)C)C(=O)N2CCC[C@@H]2C(=O)O[C@@H]1C lists PAMPA 2.8 × 10^-6 cm/s. The entry for CC(=O)N1CCC[C@@H]1C(=O)N(C)[C@@H](CC(C)C)C(=O)N[C@@H]1C(=O)N(C)[C@H](CC(C)C)C(=O)N(C)[C@@H](CC(C)C)C(=O)N[C@H](CC(C)C)C(=O)N(C)[C@@H](C)C(=O)N[C@@H](CC(C)C)C(=O)N2CCC[C@@H]2C(=O)O[C@@H]1C lists PAMPA 2.6 × 10^-6 cm/s.

For CC(=O)N1CCC[C@H]1C(=O)N[C@@H]1C(=O)N(C)[C@H](CC(C)C)C(=O)N[C@@H](CC(C)C)C(=O)N[C@H](CC(C)C)C(=O)N(C)[C@H](CC(C)C)C(=O)N(C)[C@H](C)C(=O)N[C@@H](CC(C)C)C(=O)N2CCC[C@@H]2C(=O)O[C@@H]1C the data give PAMPA 1.1 × 10^-6 cm/s. CC(=O)N1CCC[C@H]1C(=O)N(C)[C@@H](CC(C)C)C(=O)N[C@@H]1C(=O)N(C)[C@@H](CC(C)C)C(=O)N[C@@H](CC(C)C)C(=O)N[C@H](CC(C)C)C(=O)N(C)[C@@H](C)C(=O)N[C@@H](CC(C)C)C(=O)N2CCC[C@H]2C(=O)O[C@@H]1C is reported with PAMPA 5.6 × 10^-6 cm/s. CC(=O)N1CCC[C@@H]1C(=O)N(C)[C@@H](CC(C)C)C(=O)N[C@@H]1C(=O)N[C@@H](CC(C)C)C(=O)N[C@H](CC(C)C)C(=O)N[C@H](CC(C)C)C(=O)N[C@@H](C)C(=O)N[C@H](CC(C)C)C(=O)N2CCC[C@H]2C(=O)O[C@@H]1C has PAMPA 0.19 × 10^-6 cm/s. The entry for CC(=O)N1CCC[C@H]1C(=O)N(C)[C@H](CC(C)C)C(=O)N[C@@H]1C(=O)N[C@@H](CC(C)C)C(=O)N[C@H](CC(C)C)C(=O)N(C)[C@H](CC(C)C)C(=O)N[C@@H](C)C(=O)N[C@@H](CC(C)C)C(=O)N2CCC[C@@H]2C(=O)O[C@@H]1C lists PAMPA 0.58 × 10^-6 cm/s. Listed for CC(=O)N1CCC[C@H]1C(=O)N[C@@H]1C(=O)N[C@H](CC(C)C)C(=O)N(C)[C@H](CC(C)C)C(=O)N(C)[C@H](CC(C)C)C(=O)N[C@H](CC(C)C)C(=O)N(C)[C@H](C)C(=O)N[C@@H](CC(C)C)C(=O)N2CCC[C@@H]2C(=O)O[C@@H]1C: PAMPA 10 × 10^-6 cm/s. For CC(=O)N1CCC[C@H]1C(=O)N[C@@H]1C(=O)N[C@H](CC(C)C)C(=O)N[C@@H](CC(C)C)C(=O)N[C@@H](CC(C)C)C(=O)N[C@H](CC(C)C)C(=O)N[C@@H](C)C(=O)N[C@@H](CC(C)C)C(=O)N2CCC[C@@H]2C(=O)O[C@@H]1C the data give PAMPA 0.89 × 10^-6 cm/s. For CC(=O)N1CCC[C@H]1C(=O)N(C)[C@H](CC(C)C)C(=O)N[C@@H]1C(=O)N(C)[C@@H](CC(C)C)C(=O)N(C)[C@@H](CC(C)C)C(=O)N(C)[C@H](CC(C)C)C(=O)N(C)[C@@H](C)C(=O)N[C@H](CC(C)C)C(=O)N2CCC[C@@H]2C(=O)O[C@@H]1C the data give PAMPA 4.7 × 10^-6 cm/s. Listed for CC(=O)N1CCC[C@H]1C(=O)N(C)[C@@H](CC(C)C)C(=O)N[C@@H]1C(=O)N(C)[C@@H](CC(C)C)C(=O)N(C)[C@@H](CC(C)C)C(=O)N[C@H](CC(C)C)C(=O)N(C)[C@H](C)C(=O)N[C@H](CC(C)C)C(=O)N2CCC[C@@H]2C(=O)O[C@@H]1C: PAMPA 0.91 × 10^-6 cm/s.

The entry for CC(=O)N1CCC[C@H]1C(=O)N(C)[C@@H](CC(C)C)C(=O)N[C@@H]1C(=O)N(C)[C@H](CC(C)C)C(=O)N[C@H](CC(C)C)C(=O)N[C@@H](CC(C)C)C(=O)N(C)[C@@H](C)C(=O)N[C@@H](CC(C)C)C(=O)N2CCC[C@H]2C(=O)O[C@@H]1C lists PAMPA 0.35 × 10^-6 cm/s. CC(=O)N1CCC[C@H]1C(=O)N(C)[C@H](CC(C)C)C(=O)N[C@@H]1C(=O)N[C@H](CC(C)C)C(=O)N[C@@H](CC(C)C)C(=O)N[C@@H](CC(C)C)C(=O)N(C)[C@@H](C)C(=O)N[C@@H](CC(C)C)C(=O)N2CCC[C@H]2C(=O)O[C@@H]1C has PAMPA 1.3 × 10^-6 cm/s. CC(=O)N1CCC[C@@H]1C(=O)N(C)[C@H](CC(C)C)C(=O)N[C@@H]1C(=O)N[C@H](CC(C)C)C(=O)N(C)[C@@H](CC(C)C)C(=O)N(C)[C@@H](CC(C)C)C(=O)N[C@@H](C)C(=O)N[C@H](CC(C)C)C(=O)N2CCC[C@H]2C(=O)O[C@@H]1C has PAMPA 2.3 × 10^-6 cm/s. CC(=O)N1CCC[C@H]1C(=O)N(C)[C@@H](CC(C)C)C(=O)N[C@@H]1C(=O)N(C)[C@H](CC(C)C)C(=O)N(C)[C@@H](CC(C)C)C(=O)N[C@@H](CC(C)C)C(=O)N[C@@H](C)C(=O)N[C@H](CC(C)C)C(=O)N2CCC[C@@H]2C(=O)O[C@@H]1C is reported with PAMPA 1 × 10^-6 cm/s. The entry for CC(=O)N1CCC[C@@H]1C(=O)N(C)[C@@H](CC(C)C)C(=O)N[C@@H]1C(=O)N[C@H](CC(C)C)C(=O)N(C)[C@H](CC(C)C)C(=O)N[C@H](CC(C)C)C(=O)N(C)[C@@H](C)C(=O)N[C@@H](CC(C)C)C(=O)N2CCC[C@H]2C(=O)O[C@@H]1C lists PAMPA 1.9 × 10^-6 cm/s. CC(=O)N1CCC[C@H]1C(=O)N(C)[C@@H](CC(C)C)C(=O)N[C@@H]1C(=O)N[C@H](CC(C)C)C(=O)N[C@@H](CC(C)C)C(=O)N(C)[C@H](CC(C)C)C(=O)N(C)[C@@H](C)C(=O)N[C@H](CC(C)C)C(=O)N2CCC[C@@H]2C(=O)O[C@@H]1C has PAMPA 4 × 10^-6 cm/s. CC(=O)N1CCC[C@H]1C(=O)N(C)[C@@H](CC(C)C)C(=O)N[C@@H]1C(=O)N(C)[C@H](CC(C)C)C(=O)N(C)[C@@H](CC(C)C)C(=O)N(C)[C@H](CC(C)C)C(=O)N(C)[C@@H](C)C(=O)N[C@H](CC(C)C)C(=O)N2CCC[C@H]2C(=O)O[C@@H]1C is reported with PAMPA 6 × 10^-6 cm/s. The entry for CC(=O)N1CCC[C@H]1C(=O)N(C)[C@@H](CC(C)C)C(=O)N[C@@H]1C(=O)N[C@@H](CC(C)C)C(=O)N(C)[C@H](CC(C)C)C(=O)N(C)[C@H](CC(C)C)C(=O)N(C)[C@@H](C)C(=O)N[C@@H](CC(C)C)C(=O)N2CCC[C@@H]2C(=O)O[C@@H]1C lists PAMPA 1.8 × 10^-6 cm/s.

2 of these entries, quoted again:

The entry for CC(=O)N1CCC[C@@H]1C(=O)N(C)[C@H](CC(C)C)C(=O)N[C@@H]1C(=O)N[C@H](CC(C)C)C(=O)N[C@@H](CC(C)C)C(=O)N[C@@H](CC(C)C)C(=O)N[C@@H](C)C(=O)N[C@H](CC(C)C)C(=O)N2CCC[C@@H]2C(=O)O[C@@H]1C lists PAMPA 0.0079 × 10^-6 cm/s.
The entry for CC(=O)N1CCC[C@H]1C(=O)N(C)[C@H](CC(C)C)C(=O)N[C@@H]1C(=O)N(C)[C@@H](CC(C)C)C(=O)N(C)[C@@H](CC(C)C)C(=O)N(C)[C@H](CC(C)C)C(=O)N(C)[C@@H](C)C(=O)N[C@H](CC(C)C)C(=O)N2CCC[C@@H]2C(=O)O[C@@H]1C lists PAMPA 4.7 × 10^-6 cm/s.

Data: CycPeptMPDB; original report Kelly et al. 2021, doi:10.1021/jacs.0c06115.